Tests used:
DR1 (HLA-DRB1*01:01) = DR1 (HLA-DRB1*01:01) (Homo sapiens, UniProt P01903+P01911, A100R/D57E/F55L/F60I/F76Y/I96L/L162R/M171V/P40L/Q125E/R42F/V115G/Y59C); test: MAPS peptide–MHCII binding, DR1; conditions: flow cytometry
DR1 = assay type: binding, human

DNP-PKYVKQNTLKLAT [HA306–318]
DNP-positive beads (shift) (DR1 (HLA-DRB1*01:01); […], anti-DNP staining): 37.9%
DNP staining versus empty DR1 or peptide alone (DR1 (HLA-DRB1*01:01); microspheres): significantly greater DNP staining
peptide exchange efficiency (DR1): ~100%
